Measured affinities in a library of Ab-95 light chain variants

Reference: Engelhart et al. 2022, doi:10.1038/s41597-022-01779-4. File: FLAb, binding data.

Target: peptide PDVDLGDISGINAS, taken from heptad repeat 2 (HR2) of SARS-CoV-2 spike.

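The parent was found by panning a naive human phage display library on the peptide. Library AAYL52 holds single substitutions and randomly drawn double and triple substitutions in the CDRs. The scFvs were displayed on barcoded MATa yeast, the peptide on MATalpha yeast. The frequency of each diploid, read from paired DNA barcodes, reflects how well the two displayed proteins bind. Read counts were normalised to the haploid input and turned into Kd by a linear fit to BCL2-family pairs of known affinity, for each replicate. Each pool was mated in three replicate cultures.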

Ab-95 is the parent antibody, in scFv form: VH, then a (GGGGS)3 linker, then VL. The heavy chain is unchanged in all variants.
VH: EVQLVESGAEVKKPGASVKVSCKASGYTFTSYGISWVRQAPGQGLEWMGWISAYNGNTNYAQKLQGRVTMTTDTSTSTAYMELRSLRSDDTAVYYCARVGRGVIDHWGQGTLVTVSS
VL: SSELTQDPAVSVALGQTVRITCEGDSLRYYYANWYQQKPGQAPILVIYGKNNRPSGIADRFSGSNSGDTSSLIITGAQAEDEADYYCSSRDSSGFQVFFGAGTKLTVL

The whole VL of each variant is written out. Affinities are written as log10 Kd with Kd in nM; a lower number is a better binder. "nd" marks a missing value. The strain was present, yet no cells mated with the target were sequenced in that replicate, which points to weak or no binding. Background: pairings of library AAYL52 with three empty control strains gave a value in 28% of cases (median 3.91, 5th percentile 2.90). Values in that range, when seen in few replicates, are hard to tell from nonspecific mating. The control count says in how many pairings with the empty strains this scFv gave a signal, with their mean in brackets.

VL	replicates, log10 nM	empty controls
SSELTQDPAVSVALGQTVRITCRGDSLREYYANWYQQKPGQAPILVIYGKNNRPSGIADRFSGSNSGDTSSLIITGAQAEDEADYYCSSRDSSGFQRFFGAGTKLTVL	4.25 / 5.70 / nd	2 of 9 (3.44)
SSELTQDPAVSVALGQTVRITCEWDSLRWYYLNWYQQKPGQAPILVIYGKNNRPSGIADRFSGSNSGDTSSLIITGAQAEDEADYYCSSRDSSGFQVFFGAGTKLTVL	2.87 / 2.54 / 2.62	5 of 9 (3.86)
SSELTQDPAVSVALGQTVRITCESDSLRYYYANWYQQKPGQAPILVIYGKNGRPSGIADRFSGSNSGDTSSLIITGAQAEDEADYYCSVRDSSGFQVFFGAGTKLTVL	2.52 / 2.58 / 1.75	1 of 9 (2.42)
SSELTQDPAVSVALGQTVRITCEGDSLRYSYANWYQQKPGQAPILVIYGKNNRPSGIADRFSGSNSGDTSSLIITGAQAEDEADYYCQSRSSSGFQVFFGAGTKLTVL	1.67 / 1.51 / 1.31	4 of 9 (3.97)
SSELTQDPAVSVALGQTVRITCEGHSLRLNYANWYQQKPGQAPILVIYGKNNRPSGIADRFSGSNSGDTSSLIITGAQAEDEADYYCSSRDSSGFQVFFGAGTKLTVL	1.33 / 1.28 / 0.88	5 of 9 (4.50)
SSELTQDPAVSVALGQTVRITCEGDHLRYYYANWYQQKPGQAPILVIYQKNNRPSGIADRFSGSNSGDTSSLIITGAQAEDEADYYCSSRDSSGSQVFFGAGTKLTVL	3.14 / nd / nd	1 of 9 (3.99)
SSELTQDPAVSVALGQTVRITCEGDSLRYYYANWYQQKPGQAPILVIYGKNNRPSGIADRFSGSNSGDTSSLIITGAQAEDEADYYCWSRMSSGFQVFFGAGTKLTVL	2.33 / 2.63 / 2.64	0 of 9
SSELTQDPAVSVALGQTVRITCEGDSLRYYYANWYQQKPGQAPILVIYGKNNRPSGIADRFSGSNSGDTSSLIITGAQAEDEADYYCHSRSSRGFQVFFGAGTKLTVL	2.74 / 2.49 / 2.61	2 of 9 (4.15)
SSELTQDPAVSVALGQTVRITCEGDSLRYYYANWYQQKPGQAPILVIYGKGNRPSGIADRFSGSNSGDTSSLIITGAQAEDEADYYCSSRDIAGFQVFFGAGTKLTVL	2.78 / 2.28 / 1.88	3 of 9 (3.67)
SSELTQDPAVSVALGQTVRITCEGDSLRYYYANWYQQKPGQAPILVIYGKNHRPSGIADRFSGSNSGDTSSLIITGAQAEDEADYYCSSRDGSGFQVFFGAGTKLTVL	3.94 / 3.33 / nd	4 of 9 (3.19)
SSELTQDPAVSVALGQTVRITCEGDSLRYYYANWYQQKPGQAPILVIYGKMNRPSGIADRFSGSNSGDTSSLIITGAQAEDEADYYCSSRDSVGFQLFFGAGTKLTVL	nd / 3.48 / 4.71	2 of 9 (4.23)
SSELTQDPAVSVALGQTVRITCEGDSNRYYYANWYQQKPGQAPILVIYGKENRPSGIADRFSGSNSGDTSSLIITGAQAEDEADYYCSSRDSSGFFVFFGAGTKLTVL	3.81 / nd / nd	2 of 9 (3.86)
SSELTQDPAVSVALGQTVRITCEGDSLRYYHANWYQQKPGQAPILVIYGKNNRPTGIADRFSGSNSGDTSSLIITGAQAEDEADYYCSSRDSSGKQVFFGAGTKLTVL	3.47 / 3.26 / 2.81	0 of 9
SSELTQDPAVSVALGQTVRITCEGDSLRYYYANWYQQKPGQAPILVIYEKNNRPHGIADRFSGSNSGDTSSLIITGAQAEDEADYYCSSRDISGFQVFFGAGTKLTVL	nd / 3.38 / nd	3 of 9 (3.35)
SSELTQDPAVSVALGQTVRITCEGDSLRYPYQNWYQQKPGQAPILVIYGKNNRESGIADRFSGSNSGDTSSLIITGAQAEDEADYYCSSRDSSGFQVFFGAGTKLTVL	nd / 2.65 / nd	0 of 9
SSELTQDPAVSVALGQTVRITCEFDSLRYYYANWYQQKPGQAPILVIYGPNNRPSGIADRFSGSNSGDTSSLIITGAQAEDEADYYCSSRDSSGFIVFFGAGTKLTVL	3.79 / 4.19 / 4.25	6 of 9 (3.47)
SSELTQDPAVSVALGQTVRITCEGDSLRYYYVNWYQQKPGQAPILVIYGKWNRPSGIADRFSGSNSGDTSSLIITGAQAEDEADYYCSSRDCSGFQVFFGAGTKLTVL	4.66 / nd / nd	5 of 9 (3.47)
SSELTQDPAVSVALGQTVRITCEGDIVRYYYANWYQQKPGQAPILVIYGKNNRPSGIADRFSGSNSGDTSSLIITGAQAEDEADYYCSSRDSSEFQVFFGAGTKLTVL	nd / 5.41 / 3.25	3 of 9 (3.60)
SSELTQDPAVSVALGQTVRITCEGDSLRYYYAAWYQQKPGQAPILVIYGKNNRPSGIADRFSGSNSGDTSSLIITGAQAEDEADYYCSNRDFSGFQVFFGAGTKLTVL	nd / 3.06 / nd	0 of 9

The opening 2 entries, copied out:

VL	replicates, log10 nM	empty controls
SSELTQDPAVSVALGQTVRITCRGDSLREYYANWYQQKPGQAPILVIYGKNNRPSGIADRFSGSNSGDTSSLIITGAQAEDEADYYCSSRDSSGFQRFFGAGTKLTVL	4.25 / 5.70 / nd	2 of 9 (3.44)
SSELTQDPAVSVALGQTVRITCEWDSLRWYYLNWYQQKPGQAPILVIYGKNNRPSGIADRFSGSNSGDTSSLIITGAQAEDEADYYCSSRDSSGFQVFFGAGTKLTVL	2.87 / 2.54 / 2.62	5 of 9 (3.86)

In this assay the parent's reference entry averaged 2.31; its copy inside this library read 2.25.